# Assay results reported in patent publication EP0989983B1 (SCHERING CORPORATION, priority 1997, dated 1998).
# Sequences of proteins named here, by UniProt entry; tags and fusion partners are left off.
# UniProt P49356, whole entry: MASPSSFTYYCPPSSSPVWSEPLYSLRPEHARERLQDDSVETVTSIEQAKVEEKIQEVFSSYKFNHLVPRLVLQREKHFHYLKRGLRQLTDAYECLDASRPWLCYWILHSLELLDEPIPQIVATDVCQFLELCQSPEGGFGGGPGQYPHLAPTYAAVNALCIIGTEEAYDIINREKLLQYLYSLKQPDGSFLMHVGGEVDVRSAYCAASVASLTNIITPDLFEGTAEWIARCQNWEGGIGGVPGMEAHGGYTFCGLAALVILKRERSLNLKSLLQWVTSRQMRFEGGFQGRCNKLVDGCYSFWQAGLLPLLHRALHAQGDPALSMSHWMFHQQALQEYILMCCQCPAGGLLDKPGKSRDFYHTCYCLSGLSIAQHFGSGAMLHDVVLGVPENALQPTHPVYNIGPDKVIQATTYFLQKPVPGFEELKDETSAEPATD
# UniProt P53610, whole entry: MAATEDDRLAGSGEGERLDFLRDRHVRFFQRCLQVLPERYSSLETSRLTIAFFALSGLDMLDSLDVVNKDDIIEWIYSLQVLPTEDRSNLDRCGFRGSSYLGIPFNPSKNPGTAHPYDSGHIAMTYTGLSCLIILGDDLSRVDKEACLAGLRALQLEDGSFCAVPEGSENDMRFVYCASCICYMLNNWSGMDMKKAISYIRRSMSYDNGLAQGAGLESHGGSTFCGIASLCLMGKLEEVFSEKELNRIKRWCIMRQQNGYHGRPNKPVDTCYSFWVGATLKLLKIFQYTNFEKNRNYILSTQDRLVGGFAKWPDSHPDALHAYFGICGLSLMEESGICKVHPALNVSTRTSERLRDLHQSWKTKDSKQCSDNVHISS
# What was measured:
# [1] = target: farnesyl protein transferase (Homo sapiens, UniProt P49354+P49356); assay: FPT IC50, inhibition of farnesyl protein transferase, in vitro enzyme assay (procedure of WO 95/10516); details: read-out: FPT C50, several values in a cell are repeat determinations
# [2] = test system: COS Cell; assay: COS Cell IC50 (Cell-Based Assay, procedure of WO 95/10516); details: read-out: COS Cell IC50, several values in a cell are repeat determinations
# [3] = test system: Human tumor cells; assay: Soft Agar Assay (anchorage-independent growth, colony count after MTT staining); details: read-out: Soft Agar IC50; colony outgrowth 10-16 days at 37°C in 0.3% agarose
# Method: Anchorage-independent growth is a characteristic of tumorigenic cell lines. Human tumor cells are suspended in growth medium containing 0.3% agarose and an indicated concentration of a farnesyl transferase inhibitor. The solution is overlayed onto growth medium solidified with 0.6% agarose containing the same concentration of farnesyl transferase inhibitor as the top layer. After the top layer is solidified, plates are incubated for 10-16 days at 37°C under 5% CO2 to allow colony outgrowth. After incubation, the colonies are stained by overlaying the agar with a solution of MTT (3-[4,5-dimethylthiazol-2-yl]-2,5-diphenyltetrazolium bromide, Thiazolyl blue) (1 mg/mL in PBS). Colonies can be counted and the IC50's can be determined.
# [4] = target: geranylgeranyl protein transferase (Rattus norvegicus, UniProt P53610+Q04631); assay: GGPT IC50, inhibition of geranylgeranyl protein transferase, in vitro enzyme assay (procedure of WO 95/10516); details: read-out: GGPTase IC50
# Method: FPT IC50 (inhibition of farnesyl protein transferase, in vitro enzyme assay). and COS Cell IC50 (Cell-Based Assay) were determined following the assay procedures described in WO 95/10516, published April 20, 1995. GGPT IC50 (inhibition of geranylgeranyl protein transferase, in vitro enzyme assay), Cell Mat Assay, and anti-tumor activity (in vivo anti-tumor studies) could be determined by the assay procedures described in WO 95/10516. The disclosure of WO 95/10516 is incorporated herein by reference thereto.
SMILES,IC50 [1],IC50 [2],IC50 [3],IC50 [4] [nM]
CCCCCN1C(=O)CN(C2c3ccc(Cl)cc3CCc3cc(Br)cnc32)C[C@H]1C(=O)NCc1cccnc1 (some centres unmarked),1200 nM,–,–,–
"CS(=O)(=O)N1CCN(C2c3ncc(Br)cc3CCc3cc(Cl)cc(Br)c32)CC1C(=O)NCc1cccnc1 (single isomer, unassigned) [206]",34 nM,–,–,–
O=C(NCCc1c[nH]cn1)C1CN(C2c3ccc(Cl)cc3CCc3cc(Br)cnc32)CCN1C(=O)NC1CCCCC1 (centres unmarked) [Compound 227],3.6 nM,–,–,–
O=C(NCCCN1CCCC1=O)C1CN(C2c3ncc(Br)cc3CCc3cc(Cl)cc(Br)c32)CCN1C(=O)Cc1cc[n+]([O-])cc1 (centres unmarked),11 nM,–,–,–
CCCCC(=O)N1CCN(C2c3ccc(Cl)cc3CCc3cc(Br)cnc32)CC1NC(=O)Cc1cccnc1 (centres unmarked),93 nM and 101 nM,1100 nM,> 1000 nM,–
CCCCC(=O)N1CCN(C2c3ncc(Br)cc3CCc3cc(Cl)cc(Br)c32)CC1C(=O)NCc1ccco1 (centres unmarked),62 nM,–,–,–
"O=C(NCc1cccnc1)C1CN(C2c3ccc(Cl)cc3CCc3cc(Br)cnc32)CCN1C(=O)NCC1CCCCC1 (single isomer, unassigned) [241]",11.5 nM and 9.5 nM and 9 nM,53.5 nM,83.5 nM,–
CCCCNC(=O)N1CCN(C2c3ccc(Cl)cc3CCc3cc(Br)cnc32)CC1C(=O)NCc1cccnc1 (centres unmarked),314 nM and 186 nM,–,–,–
O=C(NCc1cccnc1)C1CN(C2c3ccc(Cl)cc3CCc3cc(Br)cnc32)CCN1C(=O)C1CCCCCC1 (centres unmarked),10 nM and 14 nM,94 nM,–,–
COCCOCC(=O)N1CCN(C2c3ncc(Br)cc3CCc3cc(Cl)cc(Br)c32)CC1C(=O)NCc1cccnc1 (centres unmarked),5.5 nM,–,–,–
CCCCCCC(=O)N1CCN(C2c3ccc(Cl)cc3CCc3cc(Br)cnc32)CC1C(=O)NCc1cccnc1 (centres unmarked),250 nM and 183 nM,–,–,–
CCCCC(=O)N1CCN(C2c3ccc(Cl)cc3CCc3cc(Br)cnc32)CC1C(=O)NCCc1c[nH]cn1 (centres unmarked),13.5 nM and 9.5 nM,–,41 nM and 47 nM,–
O=C(NCc1cccnc1)[C@H]1CN(C2c3ccc(Cl)cc3CCc3cc(Br)cnc32)CCN1C(=O)NCC1CCCCC1 (some centres unmarked),4.5 nM and 5.2 nM,15.4 nM and 25 nM,74.5 nM,–
O=C(NCc1cccnc1)C1CN(C2c3ccc(Cl)cc3CCc3cc(Br)cnc32)CCN1C(=O)NC1CCCC1 (centres unmarked),–,28.5 nM,–,–
"CCCCC(=O)N1CCN(C2c3ccc(Cl)cc3CCc3cc(Br)cnc32)C[C@@H]1C(=O)NCc1cccnc1 (single isomer, unassigned) [233]",4.2 nM and 5 nM,37 nM,57 nM,–
CS(=O)(=O)N1CCN(C2c3ncc(Br)cc3CCc3cc(Cl)cc(Br)c32)CC1C(=O)NCc1ccc[n+]([O-])c1 (centres unmarked),77 nM,–,–,–
Cn1cnc(CCNC(=O)C2CN(C3c4ccc(Cl)cc4CCc4cc(Br)cnc43)CCN2C(=O)NC2CCCCC2)c1 (centres unmarked),27.3 nM,108 nM,307 nM,–
CCCCC(=O)N1CCN(C2c3ncc(Br)cc3CCc3cc(Cl)cc(Br)c32)CC1C(=O)NCCC#N (centres unmarked),39 nM,–,–,–
CCCCC(=O)N1CCN(C2c3ncc(Br)cc3CCc3cc(Cl)cc(Br)c32)CC1C(=O)NCc1cncnc1 (centres unmarked),12 nM,–,–,–
O=C(NCc1cccnc1)C1CN(C2c3ccc(Cl)cc3CCc3cc(Br)cnc32)CCN1C(=O)NC1CCCCCC1 (centres unmarked),9.4 nM and 8.7 nM,81 nM,–,–
CCCCC(=O)N1CCN(C2c3ccc(Cl)cc3CCc3cc(Br)cnc32)CC1C(=O)NCc1cccnc1 (centres unmarked),33 nM and 20 nM,–,–,–

SMILES,IC50 [1],IC50 [2],IC50 [3],IC50 [4] [nM]
CCCCC(=O)N1CCN(C2c3ncc(Br)cc3CCc3cc(Cl)cc(Br)c32)CC1C(=O)NCC1CCCO1 (centres unmarked),31 nM,–,–,–
CCCC(=O)N1CCN(C2c3ccc(Cl)cc3CCc3cc(Br)cnc32)CC1C(=O)NCc1cccnc1 (centres unmarked),415 nM and 290 nM,–,–,–
O=C(NCc1cccnc1)C1CN(C2c3ccc(Cl)cc3CCc3cc(Br)cnc32)CCN1C(=O)CCC1CCCC1 (centres unmarked),26 nM and 28 nM,–,–,–
"CCCCC(=O)N1CCN(C2c3ccc(Cl)cc3CCc3cc(Br)cnc32)C[C@@H]1C(=O)NCc1cccnc1 (single isomer, unassigned) [203]",3.3 nM,–,–,–
O=C(NCc1cccnc1)C1CN(C2c3ccc(Cl)cc3CCc3cc(Br)cnc32)CCN1C(=O)C1CCCC1 (centres unmarked),23 nM and 12 nM and 15 nM,49 nM and 94 nM,–,–
CCCCC(=O)N1CCN(C2c3ncc(Br)cc3CCc3cc(Cl)cc(Br)c32)CC1C(=O)NCc1cccc(OC)c1 (centres unmarked),47 nM,–,–,–
CCCCC(=O)N1CCN(C2c3ncc(Br)cc3CCc3cc(Cl)cc(Br)c32)CC1C(=O)NCCCN1CCCC1=O (centres unmarked),5.5 nM,–,–,–
CCCCC(=O)N1CCN(C2c3ncc(Br)cc3CCc3cc(Cl)cc(Br)c32)CC1C(=O)NCCCC(OCC)OCC (centres unmarked),180 nM,–,–,–
O=C(NCCCN1CCCC1=O)C1CN(C2c3ccc(Cl)cc3CCc3cc(Br)cnc32)CCN1C(=O)NC1CCCCC1 (centres unmarked),12 nM and 15 nM,19.6 nM,18 nM,–
O=C(CC1CN(C2c3ccc(Cl)cc3CCc3cc(Br)cnc32)CCN1C(=O)CCc1ccccc1)NCc1cccnc1 (centres unmarked),1000 nM and 910 nM,2000 nM,–,> 500000
CCCCC(=O)N1CCN(C2c3ncc(Br)cc3CCc3cc(Cl)cc(Br)c32)CC1C(=O)NCc1ccc2c(c1)OCO2 (centres unmarked),140 nM,–,–,–
Cn1cncc1CCNC(=O)C1CN(C2c3ccc(Cl)cc3CCc3cc(Br)cnc32)CCN1C(=O)NC1CCCCC1 (centres unmarked),–,0.4 nM,1.5 nM,–
CCCCC(=O)N1CCN(C2c3ncc(Br)cc3CCc3cc(Cl)cc(Br)c32)CC1C(=O)NCCCNC(=O)OC(C)(C)C (centres unmarked),> 130 nM,–,–,–
O=C1CN(C2c3ccc(Cl)cc3CCc3cc(Br)cnc32)C[C@H](C(=O)NCc2cccnc2)N1 (some centres unmarked),2200 nM,–,–,–
CCCS(=O)(=O)N1CCN(C2c3ccc(Cl)cc3CCc3cc(Br)cnc32)CC1C(=O)NCc1cccnc1 (centres unmarked),–,250 to 500 nM,213 nM,–
CCCCC(=O)N1CCN(C2c3ccc(Cl)cc3CCc3cc(Br)cnc32)CC1C(=O)Nc1cccnc1 (centres unmarked),19 nM and 16 nM,–,168 nM,31000
CN(C)C(=O)CCC(=O)N1CCN(C2c3ccc(Cl)cc3CCc3cc(Br)cnc32)CC1C(=O)NCc1cccnc1 (centres unmarked),12 nM and 14 nM,9.5 nM and 12.5 nM,52.5 nM,–
O=C(NCCCn1ccnc1)C1CN(C2c3ccc(Cl)cc3CCc3cc(Br)cnc32)CCN1C(=O)NC1CCCCC1 (centres unmarked),–,4 nM,–,–
"CCCCC(=O)N1CCN(C2c3ncc(Br)cc3CCc3cc(Cl)cc(Br)c32)CC1C(=O)NCc1cccnc1 (single isomer, unassigned) [256]",–,5.3 nM,15.5 nM,–
CCCCC(=O)N1CCN(C2c3ncc(Br)cc3CCc3cc(Cl)cc(Br)c32)CC1C(=O)NCCCn1ccnc1 (centres unmarked),10 nM,–,–,–
CCC(CC)C(=O)N1CCN(C2c3ccc(Cl)cc3CCc3cc(Br)cnc32)CC1C(=O)NCc1cccnc1 (centres unmarked),870 nM and 1100 nM,–,–,–

SMILES,IC50 [1],IC50 [2],IC50 [3],IC50 [4] [nM]
COCCC(=O)N1CCN(C2c3ccc(Cl)cc3CCc3cc(Br)cnc32)CC1C(=O)NCc1cccnc1 (centres unmarked),–,< 100 nM and 100 nM,50 to 100 nM,–
CCCCC(=O)N1CCN(C2c3ncc(Br)cc3CCc3cc(Cl)cc(Br)c32)CC1C(=O)NCCOC (centres unmarked),17 nM,–,–,–
"CCCCC(=O)N1CCN(C2c3ncc(Br)cc3CCc3cc(Cl)cc(Br)c32)CC1C(=O)NCc1cccnc1 (single isomer, unassigned) [201]",3.2 nM,–,–,–
CC(C)CC(=O)N1CCN(C2c3ccc(Cl)cc3CCc3cc(Br)cnc32)CC1C(=O)NCc1cccnc1 (centres unmarked),7.8 nM and 6.8 nM,–,–,> 100000
"CS(=O)(=O)N1CCN(C2c3ncc(Br)cc3CCc3cc(Cl)cc(Br)c32)CC1C(=O)NCc1cccnc1 (single isomer, unassigned) [202]",2.9 nM,–,–,–
O=C(NCc1cccnc1)[C@H]1CN(C2c3ccc(Cl)cc3CCc3cc(Br)cnc32)CCN1C(=O)NC1CCCCC1 (some centres unmarked),4.2 nM and 3 nM,6.4 nM,10 to 50 nM and 11 nM,–
O=C(NCc1cccnc1)C1CN(C2c3ccc(Cl)cc3CCc3cc(Br)cnc32)CCN1C(=O)NC1CCCCC1 (centres unmarked),–,–,38 nM,–
O=C1CN(C2c3ccc(Cl)cc3CCc3cc(Br)cnc32)C[C@@H](C(=O)NCc2cccnc2)N1 (some centres unmarked),> 100000 nM,–,–,–
CN(Cc1cccnc1)C(=O)C1CN(C2c3ccc(Cl)cc3CCc3cc(Br)cnc32)CCN1C(=O)CCC1CCCCC1 (centres unmarked),211 nM and 156 nM,–,–,–
CCCCCN1C(=O)CN(C2c3ccc(Cl)cc3CCc3cc(Br)cnc32)C[C@@H]1C(=O)NCc1cccnc1 (some centres unmarked),11.5 nM,59.5 nM,140 nM,–
CS(=O)(=O)N1CCN(C2c3ncc(Br)cc3CCc3cc(Cl)cc(Br)c32)CC1C(=O)NCCCN1CCCC1=O (centres unmarked),12 nM,–,–,–
CCCCC(=O)N1CCN(C2c3ncc(Br)cc3CCc3cc(Cl)cc(Br)c32)CC1C(=O)NCCN1CCOCC1 (centres unmarked),55 nM,–,–,–
O=C(NCc1cccnc1)C1CN(C2c3ncc(Br)cc3CCc3cc(Cl)cc(Br)c32)CCN1 (centres unmarked),29 nM,–,–,–
CCCCC(=O)N1CCN(C2c3ncc(Br)cc3CCc3cc(Cl)cc(Br)c32)CC1C(=O)NCCCOC (centres unmarked),50 nM,–,–,–
COCCOCC(=O)N1CCN(C2c3ncc(Br)cc3CCc3cc(Cl)cc(Br)c32)CC1C(=O)NCCCN1CCCC1=O (centres unmarked),17 nM,–,–,–
CC(C)CNC(=O)N1CCN(C2c3ccc(Cl)cc3CCc3cc(Br)cnc32)CC1C(=O)NCc1cccnc1 (centres unmarked),7.1 nM and 8.9 nM,25 nM,64 nM,–
CCCCC(=O)N1CCN(C2c3ncc(Br)cc3CCc3cc(Cl)cc(Br)c32)CC1C(=O)NCCCOCC (centres unmarked),72 nM,–,–,–
O=C(NCc1cccnc1)C1CN(C2c3ccc(Cl)cc3CCc3cc(Br)cnc32)CCN1C(=O)CCc1ccccc1 (centres unmarked),35 nM and 21 nM,150 to 200 nM,> 1000 nM,> 50000
O=C(NCc1cccnc1)C1CN(C2c3ccc(Cl)cc3CCc3cc(Br)cnc32)CCN1C(=O)CCC1CCCCC1 (centres unmarked),–,–,100 to 500 nM and 100 nM,–
CCCCC(=O)N1CCN(C2c3ncc(Br)cc3CCc3cc(Cl)cc(Br)c32)CC1C(=O)NCCN1CCCC1=O (centres unmarked),16 nM,–,–,–

# Several values for one entry are separate records, joined by “and”; a condition that tells them apart may be missing. Identical values can stand only once.
